Experimental data reported in US8017398B2, “Method for assaying protein-protein interaction” (Life Technologies Corporation, priority 2003, dated 2011).

Target: T1, human IGF-1R (Homo sapiens, UniProt P08069)
T1 construct: expressed in transfected cells; host or cells: clone HTL5B8.1 (HEK-293T line with a tTA-dependent luciferase reporter)
Assay: IGF1R-tTA + SHC1-TEV luciferase reporter assay, HTL5B8.1 cells
Format: cell-based
Conditions: 1 μM; 24 hours

- increase of luciferase reporter gene activity: 90 fold
Substance: human Insulin-like Growth Factor 1: specific receptor agonist for IGF1R
